Measured values: US12280125B2, “Method for delivering insulin” (Imam Abdulrahman Bin Faisal University, priority 2022, dated 2025)

Test system: Human foreskin fibroblast (HFF-1) cells
Assay: MTT cell viability (toxicity study)
Settings: in comparison to DMEM-treated cells (100%)

insulin
Cell growth (cell viability): 130%
